# Data published in PubChem BioAssay AID602250 (The Scripps Research Institute Molecular Screening Center, 2012).
# The list shows a part of the results, in another mix than the full data. Activity calls are given as the source filed them.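 Rule for the calls: active = inhibition above a per-plate cutoff, the plate's mean sample inhibition plus 3 SD (cut at about 24% in these data); inactive = the rest.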
# Assay: calcium signal blockers in parental CHO-K1 cells – cell-based, Fluo-8 calcium fluorescence, full deck, 1536-well, counter-screen for M1 antagonist project, primary screen (AID 602250);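 note: 0% = DMSO plus EC80 ATP and 100% = DMSO alone without ATP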
# Details: ATP-induced calcium, Fluo-8 fluorescence, at 3 µM, stronger effect = higher value
row,SMILES,inhibition
1,Cc1ccccc1OP(=O)(Nc1ccccn1)Oc1ccccc1C,inactive: 2.46%
2,CCN(C(=O)COC(=O)C(O)(c1ccccc1)c1ccccc1)c1c(N)n(Cc2ccccc2)c(=O)[nH]c1=O,inactive: 19.6%
3,CCC(=O)N1C2C3N(C(=O)CC)C1C1N(C(=O)CC)C(C(N1C(=O)CC)N3C(=O)CC)N2C(=O)CC,inactive: -9.47%
4,Clc1ccc(N2CCN(Cc3c[nH]c4ncccc34)CC2)cc1,inactive: -17.6%
5,O=C(OC1CN2CCC1CC2)c1ccccc1 (stereo unspecified),inactive: -14.7%
6,CC(=O)NC(SC(=S)N(CC(C)C)CC(C)C)C(Cl)(Cl)Cl (stereo unspecified),inactive: -1.31%
7,Cc1ccc(OP(=O)(Nc2ccccn2)Oc2ccc(C)cc2)cc1,inactive: 0.37%
8,COC(=O)c1cc2c(s1)N=C(c1ccccc1)N(C)P2(=O)N1CCOCC1 (stereo unspecified),inactive: -1.07%
9,CC1C(=O)OC2CCN3CC4OC4(COC(=O)C(C)(O)C1(C)O)C23 (stereo unspecified),inactive: -18.5%
10,O=P1(N(CCCl)CCCl)OCCC2CCCCN21 (stereo unspecified),inactive: -8.69%
11,C=C1C(=O)OC2CCN3CC=C(COC(=O)C(C)(O)C4(CO4)C1C)C23 (stereo unspecified),inactive: -5.57%
12,Cc1ccc(NP(=O)(Oc2cccc(C)c2)Oc2cccc(C)c2)nc1,inactive: -1.23%
13,c1ccc(-c2nn[nH]n2)c(-c2nn[nH]n2)c1,inactive: -14.7%
14,CCNC(=S)/N=C(\N)N[N+](=O)[O-],inactive: -6.45%
15,O=C(NC1CCS(=O)(=O)C1)NP(=S)(Oc1ccccc1)Oc1ccccc1 (stereo unspecified),inactive: 4.68%
16,O=C(OC1CN2CCC1CC2)c1cccc(Cl)c1 (stereo unspecified),inactive: -11.5%
17,C(Cc1nn[nH]n1)Cc1nn[nH]n1,inactive: -1.39%
18,Nc1ccc([As](=O)(O)c2ccc([N+](=O)[O-])cc2)cc1,inactive: 2.56%
19,O=[As](O)(c1ccccc1)c1ccc(O)cc1,inactive: 4.76%
20,O=[N+]([O-])c1ccc(O)c(/C=N/Nc2ccc([N+](=O)[O-])cc2[N+](=O)[O-])c1,inactive: -9.96%
21,CC(=O)NC(SC(=S)N(C)C)C(Cl)(Cl)Cl (stereo unspecified),inactive: -4.72%
22,O=[N+]([O-])c1ncn(CCn2cnc([N+](=O)[O-])n2)n1,inactive: -4.29%
23,C[C@H]1OP(=O)(Oc2ccccc2)[C@H](O)[C@H](O)[C@H]1N=[N+]=[N-] (stereo partly specified),inactive: -1.01%
24,O=P(Nc1nc2ccccc2s1)(c1ccccc1)c1ccccc1,inactive: 1.11%
25,O=P(Nc1ccccn1)(c1ccc(Br)cc1)c1ccc(Br)cc1,inactive: -4.24%
26,COc1ccc(N)c([N+](=O)[O-])c1[N+](=O)[O-],inactive: -7.06%
